# Experimental data published in PubChem BioAssay AID707 (Columbia University Molecular Screening Center, 2007).
# By UniProt entry, the sequences of proteins in these tests, tags left out.
# UniProt P34913, whole entry: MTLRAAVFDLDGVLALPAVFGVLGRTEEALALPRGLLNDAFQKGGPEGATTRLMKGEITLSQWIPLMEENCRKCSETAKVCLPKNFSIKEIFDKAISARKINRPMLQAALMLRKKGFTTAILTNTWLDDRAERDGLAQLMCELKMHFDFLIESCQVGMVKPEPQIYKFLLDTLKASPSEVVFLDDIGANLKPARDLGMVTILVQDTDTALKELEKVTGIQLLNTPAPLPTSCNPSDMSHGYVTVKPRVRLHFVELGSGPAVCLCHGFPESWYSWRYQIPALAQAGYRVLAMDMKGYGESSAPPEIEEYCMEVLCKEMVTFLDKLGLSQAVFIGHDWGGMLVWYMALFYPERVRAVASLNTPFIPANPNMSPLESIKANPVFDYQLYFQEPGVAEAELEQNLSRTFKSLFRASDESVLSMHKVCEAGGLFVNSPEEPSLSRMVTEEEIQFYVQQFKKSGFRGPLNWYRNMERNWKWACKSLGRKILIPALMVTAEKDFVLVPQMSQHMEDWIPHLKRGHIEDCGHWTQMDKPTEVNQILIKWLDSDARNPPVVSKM
# The entries are a selection whose mix differs from that of the whole data set. Calls of active or inactive are those of the source. Cut-off read from the data, not from the text of the source: active = inhibition above about 80%; inactive = the rest.
# Target: Bifunctional epoxide hydrolase 2 (Homo sapiens) (UniProt P34913)
# Experiment: soluble epoxide hydrolase inhibitors, primary screen, biochemical, human sEH (AID 707)
# Details: recombinant human sEH enzymatic activity assay; at 2 µM; active compounds read high
row,SMILES,inhibition
1,N/C(=N\O)c1c(N)no[n+]1[O-],inactive: -6.2%
2,c1ccc(CN2CCC(Nc3ccccc3)CC2)cc1,inactive: 1.6%
3,CCC(CO)(C(=O)OC1CN2CCC1CC2)c1ccccc1 (stereo not drawn),inactive: -0.3%
4,CCOc1ncccc1C(=O)NCC1(N2CCOCC2)CCCCC1,inactive: -3.2%
5,O=C(OC1CN2CCC1CC2)C1c2ccccc2Oc2ccccc21 (stereo not drawn),inactive: -8.1%
6,O=C(NCC1(N2CCOCC2)CCCCC1)c1cc2ccccc2o1,inactive: -6.5%
7,O=C(NCC1(N2CCOCC2)CCCCC1)c1cc(=O)[nH]c2ccccc12,inactive: 5.1%
8,CN1CCC(Nc2cccc(F)c2)CC1,inactive: -10.1%
